# Data: US9394297B2, “Amides as pim inhibitors” (AMGEN INC., priority 2012, dated 2016)
# Amino acid sequences for entries named in this document (tags omitted). A change or cut given only in a name is not applied to a line headed by its entry.
# UniProt P11309, whole entry: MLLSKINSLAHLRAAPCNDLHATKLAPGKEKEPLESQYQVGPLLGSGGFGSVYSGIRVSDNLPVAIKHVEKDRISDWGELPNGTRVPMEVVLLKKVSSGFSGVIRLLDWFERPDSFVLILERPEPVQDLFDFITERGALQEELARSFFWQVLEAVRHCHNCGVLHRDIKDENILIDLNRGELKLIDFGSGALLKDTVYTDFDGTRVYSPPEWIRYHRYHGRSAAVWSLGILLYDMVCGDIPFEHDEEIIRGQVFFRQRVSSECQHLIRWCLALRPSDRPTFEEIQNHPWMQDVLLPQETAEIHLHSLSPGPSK
# UniProt Q9P1W9: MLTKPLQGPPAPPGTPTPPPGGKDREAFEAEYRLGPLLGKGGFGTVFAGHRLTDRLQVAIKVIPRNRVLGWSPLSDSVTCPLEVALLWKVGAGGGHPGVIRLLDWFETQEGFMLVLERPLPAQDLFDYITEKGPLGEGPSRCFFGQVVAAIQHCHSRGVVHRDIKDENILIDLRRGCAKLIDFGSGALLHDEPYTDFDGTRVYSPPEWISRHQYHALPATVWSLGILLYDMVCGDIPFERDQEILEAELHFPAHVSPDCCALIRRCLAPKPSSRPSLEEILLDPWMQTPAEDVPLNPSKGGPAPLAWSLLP
# Assays:
# Format in all cases: biochemical
# [1] = target: T1, Pim-1 (Homo sapiens (Human), UniProt P11309); experiment: Pim enzyme assay (HTRF, 96-well), Pim-1; conditions: full length recombinant Pim-1, biotinylated-BAD (S112) peptide, 10-point curve, 2 h RT, read-out: Pim-1 IC50 IP
# [2] = target: T2, Pim-2 (Homo sapiens (Human), UniProt Q9P1W9); experiment: Pim enzyme assay (HTRF, 96-well), Pim-2; conditions: full length recombinant Pim-2, biotinylated-BAD (S112) peptide, 10-point curve, 45 min RT, read-out: Pim-2 IC50 IP
# [3] = target: T1, Pim-1; experiment: Pim-Mn enzyme assay (HTRF, 384-well), Pim-1; conditions: Pim-1 enzyme 5 pM, ATP 1.5 μM, BAD (S112) 0.5 μM, 22-point curve, read-out: Pim-1-Mn IC50 IP
# [4] = target: T2, Pim-2; experiment: Pim-Mn enzyme assay (HTRF, 384-well), Pim-2; conditions: Pim-2 enzyme 0.5 pM, ATP 1.5 μM, BAD (S112) 0.5 μM, 22-point curve, read-out: Pim-2-Mn IC50 IP
IC50 [1],IC50 [2],IC50 [3],IC50 [4],Structure (SMILES)
6.8 nM,8.7 nM,3.6 nM,–,"Cc1nc2cccc(-c3cc4c([nH]3)CCNC4=O)c2nc1NC1CCCOC1 (racemic) [Example 198, rac-2-(2-methyl-3-((tetrahydro-2H-pyran-3-yl)amino)quinoxalin-5-yl)-6,7-dihydro-1H-pyrrolo[3,2-c]pyridin-4(5H)-one]"
28.2 nM,50 nM,–,26.2 nM,"Cc1nc2cccc(-c3cc4c([nH]3)CCNC4=O)c2nc1NC1CCC(=O)NC1 (racemic) [Example 199, rac-2-(2-methyl-3-((6-oxopiperidin-3-yl)amino)quinoxalin-5-yl)-6,7-dihydro-1H-pyrrolo[3,2-c]pyridin-4(5H)-one]"
–,16.4 nM,–,6.9 nM,"Cc1nc2cccc(-c3cc4n(c3)CCNC4=O)c2nc1NC1CC1 [Example 233, 7-(3-(cyclopropylamino)-2-methylquinoxalin-5-yl)-3,4-dihydropyrrolo[1,2-a]pyrazin-1(2H)-one 2,2,2-trifluoroacetate]"
